The record followed here is patent publication US11013692B2, “Method of drug formulation based on increasing the affinity of crystalline microparticle surfaces for active agents” (MannKind Corporation, priority 2005, dated 2021).

Series [1] is described as follows: Resuspension of dried active agent-coated FDKP microparticles in acid solution or water (filtration, HPLC). The class given is physicochemical. As for the experimental part: The solvent was filtered from these suspensions and the retained particles were dissolved and collected. The amount of active agent in all of these samples was quantitated by HPLC.
For each of the lots, the active agent was released from the particles in the acidic solution. Therefore, by protonating the surfaces of the microcrystals, the active agent desorbs from the crystal surfaces.

The conditions of series [2]: for Filtrate (unbound protein) concentration: initial conc. 200 μg/mL; for Dissolved Particles protein concentration: material trapped on filter dissolved.
Series [3] can be described thus: Solubility of FDKP as a function of pH. The class given is physicochemical.

Like-named read-outs stand apart in the source and are kept apart here.

For growth hormone, the “Resuspended in Acidic solution, integrated HPLC peak area” value in series [1] (filtrate, final pH about 2.0, 215 nm) amounted to 240 mAU * sec. In addition, the “Resuspended in water, integrated HPLC peak area” value in series [1] (filtrate, final pH about 4.5, 215 nm) stood at 0 mAU * sec. Further, the “Redissolved after filtering away acidic solution, integrated HPLC peak area” value in series [1] (retained particles dissolved, final pH about 2.0, 215 nm) was 0 mAU * sec. The “Redissolved after filtering away water, integrated HPLC peak area” value in series [1] (retained particles dissolved, final pH about 4.5, 215 nm) was 191 mAU * sec. Moreover, the “Active Agent Standard solution, integrated HPLC peak area” value in series [1] (standard solution, 215 nm) stood at 250 mAU * sec. The “Filtrate (unbound protein) concentration” value in series [2] (pH 2.0, no particles (particle-free control)) is 181 µg/mL; in series [2] (pH 2.0, with particles (5 mg/mL FDKP)), 146 µg/mL; in series [2] (pH 4.5, no particles (particle-free control)) it was 145 µg/mL; in series [2] (pH 4.5, with particles (5 mg/mL FDKP)), 0 µg/mL. The “Dissolved Particles protein concentration” value amounted to 0 µg/mL in series [2] (pH 2.0, no particles); 0 µg/mL in series [2] (pH 2.0, with particles); 0 µg/mL in series [2] (pH 4.5, no particles); 180 µg/mL in series [2] (pH 4.5, with particles).

For “(E)-3,6-bis[4-(N-carboxy-2-propenyl)amidobutyl]-2,5-diketopiperazine [FDKP]”, in series [3] (around pH 5.0), the solubility result is recorded as “about 1 mg/mL”. Besides, the solubility in water entry in series [3] (below pH 3.5) was “essentially insoluble”.
